Results on two substances are retold here after PMC4169044.

Assay [1] has as its target 55S mitochondrial ribosome from pig liver mitochondria (pig (endogenous in pig liver mitochondria)). The assay can be described thus: co-sedimentation; 75 pmol 55S ribosomes and 1,250 pmol N-terminal histidine tagged ICT1 in 250 µl buffer A (10 mM Tris-HCl pH 7.5, 80 mM NH4Cl, 8.2 mM MgSO4, 1 mM DTT), 30°C for 20 min; 15%-30% sucrose gradient, 39,000 rpm for 5.5 hour; fractions blotted with an ICT1 antibody.

In another assay the target is E. coli 70S ribosome. The experiment in a line: co-sedimentation; 25 pmol E. coli 70S ribosomes and 250 pmol ICT1 in 250 µl buffer A (10 mM Tris-HCl pH 7.5, 80 mM NH4Cl, 8.2 mM MgSO4, 1 mM DTT), 30°C for 20 min; 15%-30% sucrose gradient; fractions blotted with an ICT1 antibody.

With “N-terminally histidine-tagged human ICT1, wild type (from UniProt Q14197 30-206) (natural protein)”, in assay [1], the percent of the input bound (% of the input ICT1) came out at 5 and the stoichiometry N (ICT1 per ribosome) was determined as 1.

With “human mitochondrial ICT1 (immature colon carcinoma transcript-1), wild type, histidine tag removed (from UniProt Q14197 30-206) (natural protein)”, in the assay with E. coli 70S ribosome, the percent of the input bound (% of the input ICT1) amounted to 10 and the stoichiometry N (ICT1 per ribosome) came to 1.
